Drawing on paper PMC2744598, this text covers Kd for three substances.

pKd: −log10 of the molar value.

In one assay the target is GST-Ubc1 UBA (yeast). Nature of the assay: SPR.
Another assay deals with GST-hHR23A UBA1 (human). Nature of the assay: SPR. Background: SPR reads the build-up and loss of mass on a sensor chip optically.

For “K63-linked diubiquitin (from UniProt P0CG48 1-76)”, the pKd with GST-Ubc1 UBA (yeast) is 3.89. Same read-out and setting: the same measure for “K48-linked diubiquitin (from UniProt P0CG48 1-76)”: 3.34. With “K48-linked tetraubiquitin (from UniProt P0CG48 1-76)”, in the assay with GST-hHR23A UBA1 (human), the pKd was 4.89.

Usually pKd stands for the negative decadic logarithm of the Kd, by convention in mol/L. Low values mean a large Kd, high ones a small Kd.
